Data from patent publication US9624164B2, “Phenyl carbamate compounds for use in preventing or treating epilepsy” (Bio-Pharm Solutions Co., Ltd., priority 2011, dated 2017).

System: mice
Assay: Measurement of neurotoxicity (rotarod, Dunham and Miya)
Format: in vivo
Conditions: po, rotarod 6 rpm
Protocol: The measurement of neurotoxicity of the test compounds was conducted by the method of Dunham and Miya [Dunham, N. W. and Miya, T. S. 1957. A note on a simple apparatus for detecting neurological deficit in rats and mice. J. Am. Pharm. Assoc. (Baltimore) 46: 208-209]. In the method, motor abilities of the test animals can be determined by observing whether the test animals can walk without falling from a rotator, thereby determining the value of neurotoxicity of each compound. […] They were pre-trained on the rotarod (Rotarod; Columbus instrument, rota-max, USA) at 6 rpm for 5 min 24 hr prior to the test. The peak time was determined by administration test material's random dose for 0.5, 1, 2, 4 hour. […] The ratio of TD50 to ED50 (TD50/ED50) is called as a protective index, and useful as a parameter for comparison of pharmaceutical efficacy and neurotoxicity.

SMILES	TD50 [mg/kg]
C[C@H](OC(N)=O)[C@H](O)c1ccccc1Cl [Compound 5, 1-(2-chlorophenyl)-(R)-1-hydroxypropyl-(S)-2-carbamate]	275.2
C[C@H](OC(N)=O)[C@@H](O)c1ccccc1Cl [Compound 1, 1-(2-chlorophenyl)-(S)-1-hydroxypropyl-(S)-2-carbamate]	218.1
C[C@H](OC(N)=O)[C@@H](O)c1c(Cl)cccc1Cl [Compound 37, 1-(2,6-dichlorophenyl)-(S)-1-hydroxypropyl-(S)-2-carbamate]	131.6
C[C@@H](OC(N)=O)[C@H](O)c1ccccc1Cl [Compound 2, 1-(2-chlorophenyl)-(R)-1-hydroxypropyl-(R)-2-carbamate]	372.0
CC(OC(N)=O)C(O)c1ccccc1Cl (racemic) [Compound 3, 1-(2-chlorophenyl)-1-hydroxypropyl-2-carbamate]	378.3
